The text below walks through data of patent US5556941A, “Glycopeptide derivatives, a process for their preparation and pharmaceutical agents containing these compounds” (Behringwerke Aktiengesellschaft, priority 1992, dated 1996).

The assay has as its target T1, trypsin from bovine pancreas (Bos taurus, UniProt P00760).
T1 construct: from tissue; host or cells: bovine pancreas
T1 sequence (P00760 24-246): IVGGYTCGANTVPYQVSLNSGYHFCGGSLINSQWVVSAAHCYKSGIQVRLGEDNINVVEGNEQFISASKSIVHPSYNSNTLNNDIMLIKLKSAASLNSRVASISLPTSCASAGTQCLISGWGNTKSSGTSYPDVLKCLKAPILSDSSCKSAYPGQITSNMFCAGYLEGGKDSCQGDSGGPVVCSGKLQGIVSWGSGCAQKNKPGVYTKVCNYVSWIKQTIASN
Kind of assay: Determination of the specificity of the inhibitors: Ki of trypsin, substrate Chromozyme TRY. The format is biochemical. The settings on record: 0.5 nM bovine pancreas trypsin, pH 7.8, 37° C., 10 minute preincubation. As for the experimental part: The specificity of the inhibitors towards thrombin and trypsin was determined. The Ki of trypsin was determined in an analogous manner to the determination of the Ki of thrombin. The reaction mixture was composed as follows--buffer: 200 mM triethanolamine, 20 mM CaCl2, pH 7.8; 37° C.; enzyme: 0.5 nM trypsin from bovine pancreas; substrate: 500 μM carbobenzoxy-L-valyl-glycyl-L-arginine-4-nitranilide (Chromozyme TRY, from Boehringer Mannheim). The enzymatic reaction was started after a 10 minute preincubation by addition of the substrate. The p-nitroaniline which was liberated was measured at 405 nm.

What is called Ki is a dissociation constant, usually derived from enzyme kinetics or from competition with a known ligand. Read a low Ki as tighter binding. Turning to `N=C(N)c1ccc(CC(NC(=O)CNS(=O)(=O)c2ccc3ccccc3c2)C(=O)N2CCCCC2)cc1` (stereo not shown) [NAPAP, 2-N-(2-naphthalenesulfonylglycyl)-4-amidino-phenylalaninc piperidide, reference compound], the Ki is 499 nM.
